These are literature values, as cited in publication PMC10985906, “Anticholinesterase activities of novel isoindolin-1,3-dione-based acetohydrazide derivatives: design, synthesis, biological evaluation, molecular dynamic study” (BMC Chemistry, 2024).

The chains behind the UniProt entries cited, without tags or fusion partners. Residues count along the entry.
UniProt P22303, 32-614: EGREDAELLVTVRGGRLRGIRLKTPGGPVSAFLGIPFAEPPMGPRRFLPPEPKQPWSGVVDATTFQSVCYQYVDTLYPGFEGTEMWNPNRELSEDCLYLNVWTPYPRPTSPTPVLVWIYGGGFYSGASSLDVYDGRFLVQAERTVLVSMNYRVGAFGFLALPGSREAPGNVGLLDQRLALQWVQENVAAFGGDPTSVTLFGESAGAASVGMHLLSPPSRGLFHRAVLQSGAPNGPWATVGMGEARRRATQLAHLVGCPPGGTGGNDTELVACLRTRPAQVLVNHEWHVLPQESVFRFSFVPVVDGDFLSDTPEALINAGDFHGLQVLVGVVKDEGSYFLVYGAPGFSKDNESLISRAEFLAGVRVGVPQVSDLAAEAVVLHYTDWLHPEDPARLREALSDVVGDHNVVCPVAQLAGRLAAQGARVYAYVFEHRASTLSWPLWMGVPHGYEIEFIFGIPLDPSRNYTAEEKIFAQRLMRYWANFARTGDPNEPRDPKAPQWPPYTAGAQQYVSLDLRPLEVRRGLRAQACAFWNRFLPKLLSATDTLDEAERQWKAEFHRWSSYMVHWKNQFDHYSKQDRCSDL

This data set concerns the target AChE (Homo sapiens, UniProt P22303). The following applies: read-out: AChE IC50; previously reported; cited from earlier work.

In the case of “2-(benzylamino-2-hydroxyalkyl)isoindoline-1,3-dione”, the IC50 (as a rule, the point on the concentration scale where inhibition reaches its midpoint) was 3.33 µM.
